The chains behind the UniProt entries cited, without tags or fusion partners.
UniProt Q86WV6, whole entry H232R/R284S: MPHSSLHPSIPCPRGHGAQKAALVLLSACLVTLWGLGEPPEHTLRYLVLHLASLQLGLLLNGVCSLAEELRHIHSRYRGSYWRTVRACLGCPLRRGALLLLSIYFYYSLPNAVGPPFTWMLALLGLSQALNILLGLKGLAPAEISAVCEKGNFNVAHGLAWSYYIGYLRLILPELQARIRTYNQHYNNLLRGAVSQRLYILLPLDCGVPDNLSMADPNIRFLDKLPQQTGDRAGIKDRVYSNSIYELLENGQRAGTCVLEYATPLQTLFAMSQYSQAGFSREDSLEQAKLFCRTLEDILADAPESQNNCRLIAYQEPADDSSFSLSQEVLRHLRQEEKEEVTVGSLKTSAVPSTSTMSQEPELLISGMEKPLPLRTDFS

According to patent publication US11541030B2, “Methods for the treatment of inflammation associated with infection” (NOXOPHARM LIMITED, priority 2020, dated 2023):

How the values were obtained:
R284S STING mutant = R284S STING mutant (Homo sapiens, UniProt Q86WV6, R284S); experiment: IP-10 ELISA in mouse iBMMs with Dox-inducible STING R284S; settings: 2.5 uM pre-treatment 1 h, overnight Dox
human STING R284S mutant = human STING R284S mutant (Homo sapiens, UniProt Q86WV6, R284S); experiment: IP-10 ELISA in THP-1 cells with Dox-inducible STING R284S; settings: THP-1, 2.5 uM for 1 h prior to overnight Dox

SMILES: Oc1ccc(C2=Cc3ccc(O)cc3OC2)cc1 [IDX, 2H-1-Benzopyran-7-0,1,3-(4-hydroxyphenyl)]
- IP-10 induction by STING R284S (R284S STING mutant): blunted
- IP-10 (IRF3 branch) induced by STING R284S expression (human STING R284S mutant): significantly reduce
